Literature values in patent publication US9050267B2 (Novartis AG, priority 2011, dated 2015).

Conditions: cited from earlier work

formoterol fumarate
water solubility: about 1 mg/ml
